Measurements taken from patent publication US9181310B2 (priority 2003, dated 2015).
Where “and” joins values, the source holds several entries; their conditions need not be identical. Identical values can stand only once.

How the values were obtained:
[1] = tested on: E. coli strain ADA410 P3rpoH::lacZ reporter (damage to the bacterial outer membrane); assay: P3rpoH::lacZ reporter, purified protein added to ADA410 cells, beta-galactosidase activity; details: 10 micrograms purified protein, 25 degrees, 2 hours
E. coli ER2566 = type: cell-based
[2] = tested on: citrus (Citrus sinensis x Poncirus trifoliata) cv. Carizzo; assay: Stable transformation of citrus, effect on the plant; details: stable transformation with pIPG786

For `COc1ccc2cc3[n+](cc2c1OC)CCc1cc2c(cc1-3)OCO2` [berberine, 5,6-dihydro-9,10-dimethoxybenzo-1,3-benzodioxoloquino-lizimium, reference compound], the “effect of berberine on BL21 DE3 cells carrying the pET vector alone” value (E. coli BL21 DE3 cells) was “little effect”.

B1: D2: BombBC deletion, aa 77-169 of BC, SEQ ID 7 (protein)
chain: MTEAQKADGIEWLKRHPVGADALIEELQNLPVATAEESAAFEQVRASARGQNAKTAEGEVAQAGGGNRRKKKEKPAEAGEVQNPPAADGDSLLS
modifications: mutant D2 predicted amino acid sequence
B1 was tested, and the “damage to the bacterial outer membrane by externally applied protein (beta-galactosidase activity)” value [1] was “full BC activity”, the “damage to the bacterial outer membrane by externally applied protein (beta-galactosidase activity)” value ([1]; listed as BC-D2) was “equally efficacious” and the “bacterial stasis induced by expression” value (E. coli ER2566; berberine chloride 250 ug/ml, 0.25 mM IPTG, 20 hrs of induction) was “clearly induced”. The “activity of expression clone (growth in presence of berberine chloride)” value (E. coli ER2566; berberine chloride (5 micrograms/ml), 20 h after induction) was “Active”.

B2: BombBC: Bacteriophage Outer Membrane Breaching protein of Xanthomonas phage P15 (Xp15) ORF BC, 17.9 kD, SEQ ID NO. 17 (protein, listed as Xanthomonas campestris)
chain: MSDQTDTTQTTPAEKAPPKEIIRGRMPIAVVALARFGSQSTTTTKAAADALGTTVGKIDDIRKNRNFAYVTADFKPTEAQKADGIEWLKRHPVGADALIEELQNLPVATAEESAAFEQVRASARGQNAKTAEGEVAQAGGGNRRKKKEKPAEAGEVQNPPAADGDSLLS
With B2 the “detrimental effect on citrus plants” value [2] was “not detrimental”, the “cell debris in the culture” value (E. coli BL21 DE3 cells) was “no evidence of cell debris” and the “effect of induced expression on the culture (lysis / quasilysis)” value (E. coli BL21 DE3 cells) was “quasilysis”. The “optical density (OD) at 600 nm, 0 hr PI” value (E. coli BL21 DE3 cells) was 0.5, the “optical density (OD) at 600 nm, 3 hr PI” value (E. coli BL21 DE3 cells) was 0.8 and 0.6 and the “optical density (OD) at 600 nm, 18 hr PI” value (E. coli BL21 DE3 cells) was 0.7 and 0.5. For the same molecule, the “optical density (OD) at 600 nm, 24 hr PI” value (E. coli BL21 DE3 cells) was 0.6 and 0.4.
